According to US20190093159A1:

Target: nucleosome with H3K4me3 and H4Kac5 (H4 K5/8/12/16/20ac) (human) (UniProt P62805)
Experiment: GST pull-down of the barcoded nucleosome library, sequencing read-out, normalised to the H3K4me3 variant

fold enhancement of binding efficiency compared to H3K4me3 alone: 7 fold
Substance: GST-tagged BPTF-PHD-BD (from UniProt Q12830 2865-3033)
